Literature values as cited in US11325900B2, “5-(pyrimidin-4-yl)thiazol-2-yl urea derivatives as therapeutic agents” (AUCENTRA HOLDINGS PTY LTD, priority 2018, dated 2022).

Protein sequences, listed by entry. Tags and fused reporters are not part of them. Lines headed by an entry give the natural chain unless they say otherwise; changes in a name come on top.
UniProt P49336: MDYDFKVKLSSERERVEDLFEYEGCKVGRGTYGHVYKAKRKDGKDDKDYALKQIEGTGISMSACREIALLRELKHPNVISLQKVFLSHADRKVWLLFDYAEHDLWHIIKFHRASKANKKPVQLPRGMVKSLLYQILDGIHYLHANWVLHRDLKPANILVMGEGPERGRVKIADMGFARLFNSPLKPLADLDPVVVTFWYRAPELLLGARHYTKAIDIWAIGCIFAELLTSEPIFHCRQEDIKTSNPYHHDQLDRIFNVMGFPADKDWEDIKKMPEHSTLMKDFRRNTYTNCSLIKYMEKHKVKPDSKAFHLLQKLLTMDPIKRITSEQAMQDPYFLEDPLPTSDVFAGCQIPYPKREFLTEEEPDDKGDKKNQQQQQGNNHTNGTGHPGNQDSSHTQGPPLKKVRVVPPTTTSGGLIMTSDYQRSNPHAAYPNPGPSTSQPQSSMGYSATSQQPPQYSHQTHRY

Molecular target: CDK8 (Homo sapiens, UniProt P49336)
Conditions: background, Pelish et al. 2015; cited from earlier work

cortistatin A
CDK8 inhibition (in words): potent and selective inhibitor of CDK8
